Measurements published in PMC9168620, “Genetic validation of Aspergillus fumigatus phosphoglucomutase as a viable therapeutic target in invasive aspergillosis” (The Journal of Biological Chemistry, 2022).

Chains of the proteins cited; added tags and fusions are not shown. Lines headed by an entry give the natural chain unless they say otherwise; changes in a name come on top.
UniProt Q4WY53: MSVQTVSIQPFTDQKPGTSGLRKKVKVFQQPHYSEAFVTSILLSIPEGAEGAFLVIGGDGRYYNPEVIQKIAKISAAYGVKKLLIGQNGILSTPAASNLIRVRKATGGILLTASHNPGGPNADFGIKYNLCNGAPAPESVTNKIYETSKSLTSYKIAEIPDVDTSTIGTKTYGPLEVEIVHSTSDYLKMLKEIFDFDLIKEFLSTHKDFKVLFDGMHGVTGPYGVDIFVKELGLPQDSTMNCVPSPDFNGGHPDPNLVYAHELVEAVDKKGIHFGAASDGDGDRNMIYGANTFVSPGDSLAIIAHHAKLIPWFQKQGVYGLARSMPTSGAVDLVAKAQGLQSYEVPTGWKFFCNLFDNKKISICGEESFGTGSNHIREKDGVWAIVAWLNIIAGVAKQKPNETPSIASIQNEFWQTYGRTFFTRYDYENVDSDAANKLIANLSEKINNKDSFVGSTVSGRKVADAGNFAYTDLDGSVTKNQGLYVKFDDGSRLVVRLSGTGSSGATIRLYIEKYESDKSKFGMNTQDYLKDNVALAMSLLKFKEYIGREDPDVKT

Tests used:
[1] = system: AfPGM; assay type: biochemical; conditions: no preincubation
Protocol: (§1) The reaction mixture contained MOPS–NaOH (pH 7.4; 50 mM), MgSO4 (1.5 mM), NADP^+ (1 mM), G6PDH (0.01 U) from L. mesenteroides, Glc-1P (500 μM), Glc-1,6-2P (50 μM), and enzyme (5 nM). The reaction was carried out at 25 °C for 6 min in a total volume of 100 μl. Formation of NADPH was detected in real-time (every 1.5 min), measuring fluorescence signal (excitation at 360 nm; emission at 460 nm). To measure the inhibitory activity, compounds with different concentrations (3% (v/v) DMSO) were added to the reaction system. IC50 values were calculated using the product (NADPH) concentration at 6 min with 500 μM Glc-1P.
(§2) Figure S11: Representative enzyme activity assays for PGMs. Error bars represent standard deviation of three determinations. Panel A and B show the time course of PGMs and PGM mutants in which sugar recognition glutamates are mutated to glutamine. […] Values in parentheses indicate the time at which DTT (1 mM) was added.

[2] = target: T1, AfPGM (Aspergillus fumigatus, UniProt Q4WY53); assay type: biochemical; conditions: 15-min preincubation (Fig. S11C, D)
T1 construct: Full length AfPGM; 6His-GST (N, cleaved yes); made in house; host or cells: E. coli BL21 (DE3) pLysS
Protocol: as §1, §2

O=c1ccsn1-c1cccc(Cl)c1F [ISFP1]
Selectivity, IC50 HsPGM over IC50 WT AfPGM [1]: approximately 20 fold
Shift in IC50 against AfPGM over preincubation [2]: did not significantly display a shift
